In patent EP1285920A1, “C10 Ester sustituted taxanes as antitumor agents” (Florida State University Research Foundation, Inc., priority 2001, dated 2003):

What was measured:
MX-1 carcinoma = details: for antitumor activity / tumor response: i.v. qd x 1, Day 60
Method: Thirteen antitumor compounds were formulated for an i.v. dosing regime (single i.v. bolus, qd x 1 schedule) prepared in the following vehicle: 5% ethanol, 5% Cremophor and 90% isotonic saline.
(§1) The antitumor compounds were given intravenously in a single maximum tolerated dose (MTD) appropriate for each compound. […] The MTDs for the antitumor compounds were calculated from earlier single dose data for mice receiving i.v. administration of these compounds. All vehicle control animals in the split dosing regimes were dosed twice intravenously with half the total volume being given separated by one hour. The study was terminated on Day 60.
A complete response is obtained if the tumor is not palpable at the end of the study. […]

DU145 prostate carcinoma = tested on: DU145 prostate carcinoma
Text: Dosing was initiated on Day 1. […] Treatment groups are detailed in Table 5.

A375 melanoma = details: for toxic deaths: i.v. qd x 1, six mice per group; for antitumor activity: i.v. qd x 1
Method: Dosing was initiated on Day 1. […] Taxotere was given i.v. on a qd x 1 schedule at a dose of 70 mg/kg. […] The study was terminated on Day 60. Treatment groups are detailed in Table 9.

VM46 colon carcinoma = details: for tolerability: i.v. qd x 1
Method: Dosing was initiated on Day 1. […] Taxotere was given i.v. at a dose of 70 mg/kg on a qd x 1 schedule.

[1] = tested on: Panc-1 pancreatic carcinoma; assay: In vivo evaluation against Panc-1 human pancreatic carcinoma (Example 17); details: Panc-1 (Example 17); 0854 76.9 mg/kg i.v.
[2] = tested on: Panc-1 pancreatic carcinoma; details: Panc-1 (Example 18); i.v. qd x 1; six mice per group
A2780 ovarian carcinoma = details: for antitumor activity / toxic deaths: A2780, i.v. qd x 1; for toxic deaths: five mice per group
Method: Dosing was initiated on Day 1. […] Taxotere was given i.v. on a qd x 1 schedule at a dose of 70 mg/kg. […] The study was terminated on Day 60. Treatment groups are detailed in Table 7.

HCT116 carcinoma = tested on: HCT116 carcinoma
Method: Antitumor compounds were formulated for an i.v. dosing regime and were prepared in the following vehicle: 5% ethanol, 5% Cremophor and 90% isotonic saline.
as §1, with “half of” for “half”
A complete response is obtained if the tumor is not palpable at the end of the study.

[3] = i.v. qd x 1, five mice per group
[4] = i.v. qd x 1, six mice per group

With `CCCC(=O)O[C@H]1C(=O)[C@@]2(C)[C@H]([C@H](OC(=O)c3ccccc3)[C@]3(O)C[C@H](OC(=O)[C@H](O)[C@@H](NC(=O)OC(C)(C)C)c4ccsc4)C(C)=C1C3(C)C)[C@]1(OC(C)=O)CO[C@@H]1C[C@@H]2O` [Compound 1011] the “antitumor activity / tumor response” value (MX-1 carcinoma) was “complete and durable tumor regressions in all the treated mice”, the “toxic deaths / toxic lethalities” value (DU145 prostate carcinoma; [3]) was “at least two” and the toxic deaths (A375 melanoma) was “at least three”.
With `CC(=O)O[C@@]12CO[C@@H]1C[C@H](O)[C@@]1(C)C(=O)[C@H](OC(=O)C3CC3)C3=C(C)[C@@H](OC(=O)[C@H](O)[C@@H](NC(=O)OC(C)(C)C)c4cccs4)C[C@@](O)([C@@H](OC(=O)c4ccccc4)[C@H]21)C3(C)C` [Compound 0854] the “tolerability” value (VM46 colon carcinoma) was “Acceptable toxicity”, the toxic deaths (VM46 colon carcinoma; [4]) was “not more than one” and the “toxicity” value [1] was “highly toxic”. For the same compound, the “toxic deaths / toxic lethalities” value (DU145 prostate carcinoma; [3]) was “at least two”, the toxic deaths (A375 melanoma) was “at least three” and the “toxic deaths / toxic lethalities” value [2] was “all animals receiving this agent died”.
In the case of `CCC(=O)OC1C(=O)C2(C)C(O)CC3OCC3(OC(C)=O)C2C(OC(=O)c2ccccc2)C2(O)CC(OC(=O)C(O)C(NC(=O)c3ccccc3)c3cccs3)C(C)=C1C2(C)C` (centres unmarked) [Compound 0687], the “antitumor activity” value (A2780 ovarian carcinoma) is reported as “did not cause any complete responses, partial responses, or cases of stable disease” and the “antitumor activity / tumor response” value (MX-1 carcinoma) is reported as “complete and durable tumor regressions in all the treated mice”.
With `CCCC(=O)O[C@H]1C(=O)[C@@]2(C)[C@H]([C@H](OC(=O)c3ccccc3)[C@]3(O)C[C@H](OC(=O)[C@H](O)[C@@H](NC(=O)OC(C)(C)C)c4ccco4)C(C)=C1C3(C)C)[C@]1(OC(C)=O)CO[C@@H]1C[C@@H]2O` [Compound 0983] the toxic deaths (VM46 colon carcinoma; [4]) was “three”, the toxic deaths (A2780 ovarian carcinoma) was “five” and the “tolerability / toxicity” value (A2780 ovarian carcinoma; mouse, in vivo, iv) was “excessive toxicity”. The “antitumor activity / tumor response” value (MX-1 carcinoma) was “complete and durable tumor regressions in all the treated mice” and the toxic deaths (HCT116 carcinoma; single i.v. MTD, five mice per group) was “two”.
`CCC(=O)O[C@H]1C(=O)[C@@]2(C)[C@H]([C@H](OC(=O)c3ccccc3)[C@]3(O)C[C@H](OC(=O)[C@H](O)[C@@H](NC(=O)c4ccccc4)C4CC4)C(C)=C1C3(C)C)[C@]1(OC(C)=O)CO[C@@H]1C[C@@H]2O` [Compound 0706] was tested, and the “tolerability” value (VM46 colon carcinoma) was “well-tolerated”, the partial responses (VM46 colon carcinoma; i.v. qd x 1 (compounds estimated MTD; Taxol 24 mg/kg split), six mice per group, ended Day 64) was “two” and the complete response (VM46 colon carcinoma; [4]) was “one”. The toxic deaths (VM46 colon carcinoma; [4]) was “no toxic deaths”, the “antitumor activity” value (A2780 ovarian carcinoma) was “did not cause any complete responses, partial responses, or cases of stable disease” and the “antitumor activity / tumor response” value (MX-1 carcinoma) was “complete and durable tumor regressions in all the treated mice”. For the same compound, the “tolerability” value (DU145 prostate carcinoma; i.v. qd x 1) was “well-tolerated”, the stable disease (DU145 prostate carcinoma; [3]) was “one” and the “antitumor activity” value (A375 melanoma) was “improved survival”.
In the case of `CCC(=O)O[C@H]1C(=O)[C@@]2(C)[C@H]([C@H](OC(=O)c3ccccc3)[C@]3(O)C[C@H](OC(=O)[C@H](O)[C@@H](NC(=O)c4ccccc4)c4ccoc4)C(C)=C1C3(C)C)[C@]1(OC(C)=O)CO[C@@H]1C[C@@H]2O` [Compound 0670], the “tolerability” value (VM46 colon carcinoma) is reported as “well-tolerated”, the toxic deaths (VM46 colon carcinoma; [4]) is reported as “no toxic deaths” and the “antitumor activity” value (A375 melanoma) is reported as “not active”. For the same compound, the complete responses (HCT116 carcinoma; [3]) was “Two” and the partial response (HCT116 carcinoma; [3]) was “one”.
With `CCCC(=O)O[C@H]1C(=O)[C@@]2(C)[C@H]([C@H](OC(=O)c3ccccc3)[C@]3(O)C[C@H](OC(=O)[C@H](O)[C@H](C=C(C)C)NC(=O)OC(C)(C)C)C(C)=C1C3(C)C)[C@]1(OC(C)=O)CO[C@@H]1C[C@@H]2O` [Compound 0947] the toxic deaths (A2780 ovarian carcinoma) was “one” and the toxic deaths (MX-1 carcinoma; [4]) was “Two”.
